This is a selection; strong and weak results do not stand in their true shares. Active and inactive are the calls of the source. Rule as the data show it: active = inhibition above about 50%; inactive = the rest.

Sequences of proteins named here, by UniProt entry; tags and fusion partners are left off.
UniProt P42858, whole entry: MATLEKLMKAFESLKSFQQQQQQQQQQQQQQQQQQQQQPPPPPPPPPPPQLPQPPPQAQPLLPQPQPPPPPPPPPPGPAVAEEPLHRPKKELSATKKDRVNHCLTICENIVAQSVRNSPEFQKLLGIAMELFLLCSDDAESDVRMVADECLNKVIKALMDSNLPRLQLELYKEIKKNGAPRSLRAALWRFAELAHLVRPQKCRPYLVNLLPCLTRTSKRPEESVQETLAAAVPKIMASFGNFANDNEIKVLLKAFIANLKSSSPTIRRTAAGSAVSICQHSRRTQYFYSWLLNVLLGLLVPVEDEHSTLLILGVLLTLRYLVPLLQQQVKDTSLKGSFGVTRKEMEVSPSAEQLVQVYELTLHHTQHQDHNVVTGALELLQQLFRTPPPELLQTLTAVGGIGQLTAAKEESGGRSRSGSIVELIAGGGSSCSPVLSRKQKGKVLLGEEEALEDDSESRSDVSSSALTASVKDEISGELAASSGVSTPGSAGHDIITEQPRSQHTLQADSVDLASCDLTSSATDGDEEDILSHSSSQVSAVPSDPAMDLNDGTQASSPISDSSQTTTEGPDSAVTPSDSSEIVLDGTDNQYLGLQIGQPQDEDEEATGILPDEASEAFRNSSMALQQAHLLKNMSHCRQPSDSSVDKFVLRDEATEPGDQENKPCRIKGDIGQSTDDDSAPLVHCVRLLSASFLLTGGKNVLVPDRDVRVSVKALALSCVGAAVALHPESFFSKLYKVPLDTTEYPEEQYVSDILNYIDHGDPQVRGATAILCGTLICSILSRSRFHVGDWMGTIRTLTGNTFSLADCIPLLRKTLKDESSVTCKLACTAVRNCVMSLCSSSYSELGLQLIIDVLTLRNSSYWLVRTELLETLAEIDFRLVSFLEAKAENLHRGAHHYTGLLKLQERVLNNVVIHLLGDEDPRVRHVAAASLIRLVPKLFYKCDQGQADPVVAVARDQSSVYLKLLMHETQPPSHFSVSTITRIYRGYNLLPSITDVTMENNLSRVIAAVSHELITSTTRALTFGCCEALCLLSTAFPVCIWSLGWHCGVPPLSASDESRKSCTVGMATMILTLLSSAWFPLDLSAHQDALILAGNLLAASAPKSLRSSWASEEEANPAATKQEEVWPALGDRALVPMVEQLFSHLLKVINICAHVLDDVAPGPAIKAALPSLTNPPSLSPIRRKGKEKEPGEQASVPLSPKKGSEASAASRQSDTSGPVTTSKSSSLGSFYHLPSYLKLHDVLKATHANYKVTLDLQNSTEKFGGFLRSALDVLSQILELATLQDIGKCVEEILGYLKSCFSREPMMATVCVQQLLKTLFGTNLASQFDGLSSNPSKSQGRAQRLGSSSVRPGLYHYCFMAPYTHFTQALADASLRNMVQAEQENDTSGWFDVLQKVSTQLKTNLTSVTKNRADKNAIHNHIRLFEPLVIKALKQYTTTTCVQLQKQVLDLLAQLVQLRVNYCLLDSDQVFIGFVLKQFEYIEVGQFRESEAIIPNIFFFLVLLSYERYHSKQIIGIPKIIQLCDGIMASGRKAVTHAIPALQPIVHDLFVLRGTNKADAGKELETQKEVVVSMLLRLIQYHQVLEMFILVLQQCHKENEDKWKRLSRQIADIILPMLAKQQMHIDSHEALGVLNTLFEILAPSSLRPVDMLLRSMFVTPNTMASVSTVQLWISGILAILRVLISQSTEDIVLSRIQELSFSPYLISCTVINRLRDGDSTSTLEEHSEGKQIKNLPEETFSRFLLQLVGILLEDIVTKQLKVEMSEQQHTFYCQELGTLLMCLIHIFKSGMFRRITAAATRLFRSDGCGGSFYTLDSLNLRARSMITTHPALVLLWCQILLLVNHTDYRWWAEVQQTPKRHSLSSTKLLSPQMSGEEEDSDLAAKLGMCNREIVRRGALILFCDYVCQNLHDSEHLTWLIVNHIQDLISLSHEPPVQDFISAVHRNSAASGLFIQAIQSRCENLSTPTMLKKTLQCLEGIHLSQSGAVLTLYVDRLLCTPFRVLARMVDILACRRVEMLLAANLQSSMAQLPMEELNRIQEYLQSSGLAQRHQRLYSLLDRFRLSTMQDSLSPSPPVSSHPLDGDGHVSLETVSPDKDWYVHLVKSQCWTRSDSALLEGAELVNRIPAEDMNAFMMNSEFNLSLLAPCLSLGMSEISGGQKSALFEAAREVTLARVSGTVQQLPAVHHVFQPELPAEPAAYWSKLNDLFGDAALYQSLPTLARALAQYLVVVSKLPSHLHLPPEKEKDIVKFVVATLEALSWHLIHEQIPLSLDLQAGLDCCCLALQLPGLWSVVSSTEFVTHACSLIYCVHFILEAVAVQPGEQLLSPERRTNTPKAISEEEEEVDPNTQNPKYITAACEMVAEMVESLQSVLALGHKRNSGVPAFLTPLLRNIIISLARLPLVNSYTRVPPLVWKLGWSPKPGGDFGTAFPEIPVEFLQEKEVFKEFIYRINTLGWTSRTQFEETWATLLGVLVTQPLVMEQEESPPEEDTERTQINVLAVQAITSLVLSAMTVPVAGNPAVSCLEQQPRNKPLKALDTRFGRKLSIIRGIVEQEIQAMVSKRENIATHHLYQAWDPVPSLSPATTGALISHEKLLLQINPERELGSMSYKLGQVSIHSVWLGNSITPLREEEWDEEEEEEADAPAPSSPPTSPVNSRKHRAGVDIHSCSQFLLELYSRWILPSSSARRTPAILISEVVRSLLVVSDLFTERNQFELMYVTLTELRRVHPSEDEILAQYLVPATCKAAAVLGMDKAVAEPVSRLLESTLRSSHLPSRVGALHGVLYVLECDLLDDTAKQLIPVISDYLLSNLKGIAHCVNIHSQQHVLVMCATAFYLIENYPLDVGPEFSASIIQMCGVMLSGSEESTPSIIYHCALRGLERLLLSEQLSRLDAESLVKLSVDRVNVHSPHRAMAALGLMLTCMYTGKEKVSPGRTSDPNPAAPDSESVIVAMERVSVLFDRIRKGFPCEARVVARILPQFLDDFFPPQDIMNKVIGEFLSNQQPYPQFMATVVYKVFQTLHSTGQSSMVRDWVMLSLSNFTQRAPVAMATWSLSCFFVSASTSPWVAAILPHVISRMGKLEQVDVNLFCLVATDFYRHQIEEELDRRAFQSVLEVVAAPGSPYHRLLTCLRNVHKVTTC

For this assay, the target named is Huntingtin (Homo sapiens) (UniProt P42858). As to the kind of experiment: mutant huntingtin-calmodulin interaction inhibitors – biochemical, AlphaScreen, primary screen (AID 1671202).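 As to inhibition: 0% = both proteins with DMSO and 100% = one protein alone.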 Particulars: AlphaScreen His-mHTT/GST-CaM binding, luminescence; at 15 µM, hits give high values. Background: In Alpha technology, singlet oxygen from a donor bead excites a nearby acceptor bead.
For the compound `O=[N+]([O-])c1cc([N+](=O)[O-])c(/C=N/O)c([N+](=O)[O-])c1`, the inhibition result is “inactive”. Regarding `O=[N+]([O-])c1cc([N+](=O)[O-])c(C=Nc2ccccc2)c([N+](=O)[O-])c1`, the inhibition was active: 63%. Then `O=[N+]([O-])c1nonc1COc1nonc1[N+](=O)[O-]`, with inactive: 11%; and `CC(CNc1c([N+](=O)[O-])cc(F)cc1[N+](=O)[O-])([N+](=O)[O-])[N+](=O)[O-]`, with inactive: 20%. With `O=[N+]([O-])c1cc([N+](=O)[O-])c2c(c1)[nH][n+]1c3cc([N+](=O)[O-])cc([N+](=O)[O-])c3nn21`, the inhibition is inactive: 25%. On to `O=[N+]([O-])c1ccc(-n2ncc3c([N+](=O)[O-])cc([N+](=O)[O-])cc32)c([N+](=O)[O-])c1`, for which the inhibition was inactive: 3%. With `O=[N+]([O-])c1cc2c(c([N+](=O)[O-])c1[N+](=O)[O-])OCCO2` the figure was active: 86%; with `O=[N+]([O-])c1cc([N+](=O)[O-])c2c(c1)S(=O)(=O)c1cc([N+](=O)[O-])cc([N+](=O)[O-])c1N2`, inactive: -3%; with `Nc1nonc1N=NNc1nonc1N`, inactive: -2.93%. Then `O=[N+]([O-])[N-]c1nonc1[N-][N+](=O)[O-]`, with inactive: -6.57%; and `N1=Nc2nonc2N=Nc2nonc2N=Nc2nonc2N=Nc2nonc21`, with active: 63%. In the case of `CC(CNC(=O)C(C)([N+](=O)[O-])[N+](=O)[O-])([N+](=O)[O-])[N+](=O)[O-]`, the inhibition was inactive: -4%. For `Cc1cc([N+](=O)[O-])c(NCC(C)([N+](=O)[O-])[N+](=O)[O-])c([N+](=O)[O-])c1[N+](=O)[O-]`, the inhibition was active: 100%.

Regarding `Nc1nc(N)c([N+](=O)[O-])cc1[N+](=O)[O-]`, the inhibition is inactive: -2.68%. With `O=[N+]([O-])c1cc2c(c([N+](=O)[O-])c1)-c1c(cc([N+](=O)[O-])cc1[N+](=O)[O-])C2=NO` the figure was active: 79%; with `O=[N+]([O-])c1n[nH]c([N+](=O)[O-])c1-c1n[nH]c(-c2c([N+](=O)[O-])n[nH]c2[N+](=O)[O-])c1[N+](=O)[O-]`, inactive: -7.18%; with `Cc1nc([N+](=O)[O-])c([N+](=O)[O-])[nH]1`, inactive: -0.13%. Then `C=CC[C@H]1CC(C(O)(CC=C)CC=C)=C[C@@H](CC=C)N1.O=[N+]([O-])c1cc([N+](=O)[O-])c(O)c([N+](=O)[O-])c1`, with inactive: -4.12%; and `O=[N+]([O-])c1nonc1-c1n[nH]c(-c2nonc2[N+](=O)[O-])n1`, with inactive: 15%; and `CC(CNc1c([N+](=O)[O-])cc([N+](=O)[O-])c(Cl)c1[N+](=O)[O-])([N+](=O)[O-])[N+](=O)[O-]`, with inactive: 20%. Consider `CC(CCNC(=O)NCCC(C)([N+](=O)[O-])[N+](=O)[O-])([N+](=O)[O-])[N+](=O)[O-]`, for which the inhibition is inactive: -5%.

Consider `O=c1[nH]c2c([N+](=O)[O-])c([N+](=O)[O-])c([N+](=O)[O-])c([N+](=O)[O-])c2[nH]1`, for which the inhibition was active: 87%. With `O=[N+]([O-])c1nonc1NCNc1nonc1[N+](=O)[O-]` the figure was inactive: -2%; with `CC(CNc1c([N+](=O)[O-])cc(Cl)cc1[N+](=O)[O-])([N+](=O)[O-])[N+](=O)[O-]`, inactive: 38%.

As usually defined, the inhibition is the change of the read-out against control, counted positive when it falls.
